Data as given in patent publication US20240327375A1, “SUBSTITUTED HETEROBICYCLIC DERIVATIVES AS NEGATIVE ALLOSTERIC MODULATORS OF MGLU7 RECEPTOR” (priority 2021, published 2024).

Chains of the proteins cited; added tags and fusions are not shown. Residues count along the entry.
UniProt Q14831, 35-922 isoform 2 limits assumed: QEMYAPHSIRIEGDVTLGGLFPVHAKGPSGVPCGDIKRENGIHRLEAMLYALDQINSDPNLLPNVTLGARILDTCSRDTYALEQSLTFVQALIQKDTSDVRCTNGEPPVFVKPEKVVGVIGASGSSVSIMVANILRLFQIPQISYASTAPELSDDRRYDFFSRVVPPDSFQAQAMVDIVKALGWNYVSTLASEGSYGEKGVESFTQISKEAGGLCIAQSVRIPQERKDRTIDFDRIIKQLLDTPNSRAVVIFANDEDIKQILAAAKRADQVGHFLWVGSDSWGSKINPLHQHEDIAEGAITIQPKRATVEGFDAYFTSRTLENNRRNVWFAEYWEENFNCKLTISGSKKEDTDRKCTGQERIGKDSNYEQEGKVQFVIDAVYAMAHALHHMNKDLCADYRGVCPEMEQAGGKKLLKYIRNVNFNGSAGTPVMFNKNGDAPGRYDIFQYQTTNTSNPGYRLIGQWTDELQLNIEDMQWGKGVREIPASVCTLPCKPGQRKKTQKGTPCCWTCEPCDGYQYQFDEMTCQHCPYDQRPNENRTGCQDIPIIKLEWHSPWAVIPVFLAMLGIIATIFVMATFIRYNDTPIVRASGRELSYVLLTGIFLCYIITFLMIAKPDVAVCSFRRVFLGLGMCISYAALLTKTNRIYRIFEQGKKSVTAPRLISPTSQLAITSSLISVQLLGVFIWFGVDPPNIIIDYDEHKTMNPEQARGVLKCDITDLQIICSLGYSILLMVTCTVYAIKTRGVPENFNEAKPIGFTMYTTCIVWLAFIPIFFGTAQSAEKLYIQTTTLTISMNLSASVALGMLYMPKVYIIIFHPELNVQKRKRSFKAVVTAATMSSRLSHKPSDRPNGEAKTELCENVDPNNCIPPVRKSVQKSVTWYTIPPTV

biological target: human mGlu7 (Homo sapiens, UniProt Q14831); test: mGlu7 assay on HEK-expressing human mGlu7: fluorescent cell-based Ca2+ mobilization (FLIPR384), inhibition of EC80 L-AP4 response; conditions: read-out: Ca^2+ Flux (mean IC50); HEK-293 cells expressing hmGlu7, EC80 L-AP4 stimulation; mean of at least three independent experiments in duplicate
From the text: mGlu7 Assay on HEK-Expressing Human mGlu7
The cDNA encoding the human metabotropic glutamate 7 receptor (hmGlu7), (accession number NM_181874.2, NCBI Nucleotide database browser), was subcloned into an expression vector containing also the hygromycin resistance gene. In parallel, the cDNA encoding a G protein allowing redirection of the activation signal to intracellular calcium flux was subcloned into a different expression vector containing also the Puromycin resistance gene. Transfection of both these vectors into HEK293 cells with PolyFect reagent (Qiagen) according to supplier's protocol, and hygromycin and puromycin treatment allowed selection of antibiotic resistant cells which had integrated stably one or more copies of the plasmids. Positive cellular clones expressing hmGlu7 were identified in a functional assay measuring changes in calcium fluxes in response to glutamate and L-AP4 or known mGlu7 orthosteric antagonists.
HEK-293 cells expressing hmGlu7 were maintained in media containing DMEM, Fetal Bovine Serum (10%), Glutamax™ (2 mM), penicillin (100 units/mL), streptomycin (100 μg/mL), geneticin (100 μg/mL) and hygromycin-B (40 μg/mL) and puromycin (1 μg/mL) at 37° C. with 5% CO2 in a humidified atmosphere.
Fluorescent Cell Based- Ca^+ Mobilization Assay Human mGlu7 HEK-293 cells were plated out 24 hours prior to a fluorescent cell-based calcium mobilization assay using FLIPR^384 assay (Molecular Device, Sunnyvale, CA, USA) in black-walled, clear-bottomed, poly-L-ornithine-coated 384-well plates at a density of 25,000 cells/well in a glutamine/glutamate free DMEM medium containing fetal bovine serum (10%), penicillin (100 units/mL), streptomycin (100 μg/mL) and doxycyline (1 μg/ml) at 37° C. with 5% CO2 in a humidified atmosphere. […]
After 10 s of basal fluorescence recording, various concentrations of the compounds of the invention were added to the cells. Changes in fluorescence levels were first monitored for 180 s in order to detect any agonist activity of the compounds. […]

IC50, 100 to 1000 nM:
CN1CCc2c(-c3ccc4c(=O)n(-c5ncccc5F)ncc4c3)cccc21, COCCOc1cnc(-n2ncc3cc(-c4cccc(OC)c4C)ccc3c2=O)nc1, COCc1ccc(-n2ncc3cc(-c4ccc(C)cc4C)ccc3c2=O)cc1
